Measured values: ChEMBL document CHEMBL2157965, “Structure-based design of potent Bcl-2/Bcl-xL inhibitors with strong in vivo antitumor activity” (J Med Chem, 2012)
pIC50, pKi: −log10 of the molar value.

Sequences of proteins named here, by UniProt entry; tags and fusion partners are left off.
UniProt Q07817, whole entry: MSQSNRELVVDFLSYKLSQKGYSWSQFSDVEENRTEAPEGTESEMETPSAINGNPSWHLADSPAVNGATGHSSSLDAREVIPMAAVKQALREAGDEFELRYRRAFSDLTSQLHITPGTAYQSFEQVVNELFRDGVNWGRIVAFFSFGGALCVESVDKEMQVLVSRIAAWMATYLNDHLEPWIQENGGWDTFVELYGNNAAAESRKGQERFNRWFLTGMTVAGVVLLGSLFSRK

How the values were obtained:
[1] = Inhibition of human N-terminal His6-tagged Bcl2 isoform 2 expressed in Escherichia coli BL21(DE3) assessed as inhibition of Fluorescein-labeled BIM binding after 1 to 2 hrs by fluorescence polarization assay
Bcl-2-like protein 1 = Bcl-2-like protein 1 (Homo sapiens, UniProt Q07817); experiment: Inhibition of human N-terminal His8-tagged Bcl-XL expressed in Escherichia coli BL21(DE3) assessed as inhibition of Fluorescein-labeled BAK binding after 1 to 2 hrs by fluorescence polarization assay
[2] = Antiproliferative activity against human NCI-H146 cells after 4 days by WST8 assay; type: functional, cell-based; conditions: NCI-H146, 96 h
Outline: (§1)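 Growth inhibition was measured as described previously. IC50 values come from growth curves.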

NCI-H1417 = experiment: Antiproliferative activity against human NCI-H1417 cells after 4 days by WST8 assay; type: functional, cell-based; conditions: NCI-H1417, 96 h; outline: as §1
NCI-H1963 = experiment: Antiproliferative activity against human NCI-H1963 cells after 4 days by WST8 assay; type: functional, cell-based; conditions: NCI-H1963, 96 h; outline: as §1

SMILES | pIC50 [1] | pIC50 (Bcl-2-like protein 1) | pKi (Bcl-2-like protein 1) | pIC50 [2] | pIC50 (NCI-H1417) | pIC50 (NCI-H1963)
Cc1c(C(=O)NCCCN2CCN(C)CC2)c(-c2cccc(N3CCN(c4ccc(C(=O)NS(=O)(=O)c5ccc(N[C@H](CCN(C)C)CSc6ccccc6)c([N+](=O)[O-])c5)cc4)CC3)c2)c(-c2ccc(Cl)cc2)n1C | 7.54 | 8.30 | 8.89 |  |  | 
Cc1c(C(=O)O)c(-c2cccc(N3CCN(c4ccc(NS(=O)(=O)c5ccc(N[C@H](CCN(C)C)CSc6ccccc6)c([N+](=O)[O-])c5)cc4)CC3)c2)c(-c2ccc(Cl)cc2)n1C |  |  |  | 7.21 | 7.03 | 7.72
